From article PMC12196810, “A Dual Bioassay for Evaluation of Embryotoxicity and Acute Toxicity of Common Solvents and Surfactants in Artemia salina” (Toxics, 2025)

Tested on: Artemia salina nauplii
Experiment: Brine shrimp lethality test
Conditions: 48 h exposure, 0.05–5.0% (w/v) tested

## Cc1ccc(S(=O)(=O)O)cc1.[Na] [PTS, sodium p-toluenesulfonate]
  LC50: 0.21%
